The structures appear in SMILES notation.

Sequences of proteins named here, by UniProt entry; tags and fusion partners are left off.
UniProt Q05397, whole entry: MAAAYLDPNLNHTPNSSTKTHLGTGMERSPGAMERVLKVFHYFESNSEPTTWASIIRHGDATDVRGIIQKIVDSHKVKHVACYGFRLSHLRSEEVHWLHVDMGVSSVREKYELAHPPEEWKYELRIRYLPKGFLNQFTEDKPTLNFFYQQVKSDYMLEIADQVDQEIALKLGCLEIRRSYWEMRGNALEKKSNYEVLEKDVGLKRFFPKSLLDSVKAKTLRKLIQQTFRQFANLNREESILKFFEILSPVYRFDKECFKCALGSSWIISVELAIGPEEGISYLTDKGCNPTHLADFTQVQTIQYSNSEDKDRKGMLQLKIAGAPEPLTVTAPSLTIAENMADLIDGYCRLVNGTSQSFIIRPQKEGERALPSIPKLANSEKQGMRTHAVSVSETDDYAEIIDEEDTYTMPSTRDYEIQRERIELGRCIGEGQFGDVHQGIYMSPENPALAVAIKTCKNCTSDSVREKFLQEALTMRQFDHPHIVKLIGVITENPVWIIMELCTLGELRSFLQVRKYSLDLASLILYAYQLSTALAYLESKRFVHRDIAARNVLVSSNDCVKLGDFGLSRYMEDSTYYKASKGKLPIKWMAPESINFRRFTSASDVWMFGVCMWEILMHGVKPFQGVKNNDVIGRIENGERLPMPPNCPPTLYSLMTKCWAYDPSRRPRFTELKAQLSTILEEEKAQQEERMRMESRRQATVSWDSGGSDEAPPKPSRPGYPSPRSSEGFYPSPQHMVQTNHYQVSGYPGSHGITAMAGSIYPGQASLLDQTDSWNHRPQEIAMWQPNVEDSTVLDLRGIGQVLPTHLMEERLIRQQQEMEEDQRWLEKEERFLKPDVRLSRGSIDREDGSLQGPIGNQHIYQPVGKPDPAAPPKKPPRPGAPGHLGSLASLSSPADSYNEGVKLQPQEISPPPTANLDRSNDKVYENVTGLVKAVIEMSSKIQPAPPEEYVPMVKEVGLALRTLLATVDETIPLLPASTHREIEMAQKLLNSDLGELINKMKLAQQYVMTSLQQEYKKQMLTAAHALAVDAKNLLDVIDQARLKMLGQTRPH

The assay concerns the target human FAK (Homo sapiens (Human), UniProt Q05397). The settings on record: read-out: FAK IC50.

As to `c1cncc(CNc2cccn3nc(NCCN4CCOCC4)nc23)c1` [Example 101, N(2)-(2-Morpholin-4-yl-ethyl)-N(8)-pyridin-3-ylmethyl-[1,2,4]triazolo[1,5-a]pyridine-2,8-diamine], the IC50 – broadly, the concentration at which inhibition is half-maximal – was determined as 10 µM.
The same measure for `CN1CCN(c2ccc(Nc3nc4c(-c5ccc(S(C)(=O)=O)cc5)cc(C(F)(F)F)cn4n3)cc2)CC1` [Example 103, [8-(4-Methanesulfonyl-phenyl)-6-trifluoromethyl-[1,2,4]triazolo[1,5-a]pyridin-2-yl]-[4-(4-methyl-piperazin-1-yl)-phenyl]-amine]: 10 µM; for `Cc1nn(C)c(C)c1Nc1nc2c(-c3ccc(S(C)(=O)=O)cc3)cccn2n1` [Example 210, [8-(4-Methanesulfonyl-phenyl)-[1,2,4]triazolo[1,5-a]pyridin-2-yl]-(1,3,5-trimethyl-1H-pyrazol-4-yl)-amine]: 10 µM.
`COc1ccc(C(F)(F)F)cc1-c1cccn2nc(Nc3cccc(C4CCN(C(=O)OC(C)(C)C)CC4)c3)nc12` [Example 256]: the IC50 was determined as 10 µM.
Turning to `CC(=O)Nc1ccc(Sc2cccn3nc(Nc4ccc(C5CCN(C(=O)OC(C)(C)C)CC5)cc4)nc23)cc1` [Example 281, 4-{4-[8-(4-Acetylamino-phenylsulfanyl)-[1,2,4]triazolo[1,5-a]pyridine-2-ylamino]-phenyl}-piperidine-1-carboxylic acid tert-butyl ester], the IC50 is 10 µM.

For the origin of these results see patent US8501936B2 (priority 2009, dated 2013).
